Screening data (PubChem BioAssay)
Compounds with a hit are over-represented: about 2.2% of the library has one in this group of screens.
FGF22 binding: FGF22 (human) thermal shift binding; recombinant FGF22 thermal shift, SYPRO orange fluorescence; percent of sucrose octasulfate shift, DMSO zero; activity (Tm shift, normalised), % at 9.99 µM; hit rate 1.5% among 340,000; AID 651658;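 active = mean Tm shift, scaled 0 neutral to 100 positive control, at about 1.3% or above, every replicate too, limit read from the data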
SIRT5 inh: sirtuin-5 (human) deacylase inhibition | Q9NXA8 | Purified SirT5, succinyl-peptide AMC, trypsin-coupled fluorescence | inhibition, % at 15 µM | hit rate 1.1% among 330,000 | AID 652115; in the data active = inhibition above about 15%
UUG fidelity: alters start codon recognition fidelity in yeast. S. cerevisiae UUG-firefly luciferase reporter, luminescence/redox ratio. AID 602363. activity score, % at 18.7 µM. hit rate 0.13% among 350,000;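 active = replicate mean at a twofold rise or more, about +100% in these data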;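 note: firefly luciferase made from a UUG start codon reports start codon fidelity; reporter light over untreated wells divided by growth signal over untreated wells; some hits fall short of that in this replicate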
ERp5 inh: blocks human ERp5 reductase activity on insulin; Q15084; ERp5 insulin aggregation, absorbance 650 nm, 90 min; inhibition, % at 9.99 µM; hit rate 0.05% among 350,000; AID 651711;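 active = mean replicate inhibition above about 25%, with every replicate also reaching it, limit read from the data, passing the limit was not always enough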
S100A4 inh HTS: inhibitors of human S100A4 binding to myosin IIA peptide. S100A4/TAMRA-MyoIIA peptide fluorescence polarization. P26447. AID 652163. hit rate 0.14% among 360,000. inhibition, % at 10.7 µM;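 active = mean inhibition of at least 70% across replicates, with every replicate also reaching that level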
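Material: S100A4 monomer protein / Buffer or medium: 50 mM HEPES pH 7.2, 10 mM CaCl2, 100 mM KCl / Times: 5 min incubation before reading / Benchmarks: neutral control DMSO, positive control TFP / Reagent: labelled myosin peptide probe, 5 nM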
PDI inh: blocks human protein disulfide isomerase activity; P07237; PDI insulin aggregation turbidity, A650, 90 min; inhibition, % at 10 µM; hit rate 0.052% among 350,000;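 active = mean inhibition across replicates of 30% or more, whatever share of single replicates reach that level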
* hit, by the source's call; x = no result; ! = not active in a repeat.

SMILES	FGF22 binding	SIRT5 inh	UUG fidelity	ERp5 inh	S100A4 inh HTS	PDI inh
CC1CCC(C(C)C)C(OC(=O)Cn2c(-c3ccccc3)[n+](C)c3ccccc32)C1 (stereo unspecified)	0	19*!	2	4	0	17
OC(CNC1CCCc2ccccc21)COc1c(Cl)cccc1Cl (stereo unspecified)	44*	-5	x	4	-1	-8
O=C(C[C@H]1CC[C@@H](NS(=O)(=O)c2ccccc2)[C@H](CO)O1)N1CCC(Cc2ccccc2)CC1	0	-13	x	-6	-11	x
Cc1ccc(Cc2c(-c3ccccc3)nc3ccc(Br)cn23)cc1	0	-14	-16	-1	0	-14
Cc1ccc(Cc2c(-c3ccc(F)cc3)nc3cc(C)ccn23)cc1	0	15*	51	2	-7	-2
Cc1ccc(Cc2c(-c3ccc(Br)cc3)nc3cc(C)ccn23)cc1	0	28*	26	2	13	-1
CCC(=O)N(C)C[C@@H]1Oc2cc(-c3cccc(OC)c3)ccc2S(=O)(=O)N([C@@H](C)CO)C[C@@H]1C	0	-2	10	-4	0	x
Cc1ccsc1/C=C1/NC(=O)N(Cc2ccc(F)cc2)C1=O	43*	1	x	-1	-4	-2
O=C1N/C(=C\c2ccsc2)C(=O)N1Cc1ccc(F)cc1	0	0	-7	2	7	-8
O=C(CCCCN1CCCCC1)c1ccccc1	0	-5	-10	0	4	-1
O=C(CCCCCCC(=O)c1ccccc1)c1ccccc1	43*	-1	x	2	-3	-3
O=C(CCCCCCCC(=O)c1ccccc1)c1ccccc1	44*	-4	1	1	-1	-3
Cc1ccc(C(=O)Cc2ccccc2)cc1	44*	x	x	-5	1	7
CCCC#Cc1ccc2c(c1)O[C@@H](CN(C)C(=O)c1ccncc1)[C@@H](C)CN([C@@H](C)CO)S2(=O)=O	0	-1	-9	-2	-6	x
COC(=O)c1c(NC(=O)CC2SC(N)=NC2=O)sc(C)c1C (stereo unspecified)	44*	0	x	1	1	-5
COc1cc(OC)c(NC(=O)CC2SC(N)=NC2=O)cc1Cl (stereo unspecified)	0	-1	-17	-5	34	0
COC(=O)c1c(NC(=O)CSc2ccccc2N)sc(C)c1C	43*	-3	-12	5	0	-1
O=C(COc1cccc2c1CCN(Cc1ccccc1)C2=O)N1CCCCC1	43*	1	x	5	2	-8
CC(C)CC#Cc1ccc([C@@H]2[C@@H](CO)N3C(=O)CN(C(=O)Nc4cc(F)ccc4F)C[C@@H]23)cc1	-1	13	x	2	-21	x
CCNC(=O)CSc1nnc(CN2CCCCCC2=O)n1-c1ccccn1	43*	-2	x	-1	-3	-4

Some entries already given with just UUG fidelity and SIRT5 inh:
mol | UUG fidelity | SIRT5 inh
CCC(=O)N(C)C[C@@H]1Oc2cc(-c3cccc(OC)c3)ccc2S(=O)(=O)N([C@@H](C)CO)C[C@@H]1C | 10 | -2
Cc1ccc(Cc2c(-c3ccccc3)nc3ccc(Br)cn23)cc1 | -16 | -14
Cc1ccc(Cc2c(-c3ccc(Br)cc3)nc3cc(C)ccn23)cc1 | 26 | 28*
O=C1N/C(=C\c2ccsc2)C(=O)N1Cc1ccc(F)cc1 | -7 | 0

Remaining list, next part:
SMILES	FGF22 binding	SIRT5 inh	UUG fidelity	ERp5 inh	S100A4 inh HTS	PDI inh
Cc1ccc(NC(=O)c2sc(=S)n(-c3cc(C)ccc3F)c2N)cc1	43*	-1	1	1	-3	-1
COc1ccc(C=O)c2[nH]c3c(Cl)ncnc3c12	0	17*	5	1	6	2
COc1cc2[nH]c3c(Cl)ncnc3c2cc1OC	x	x	-8	x	x	6
C/C(CC(=O)Nc1ccc(Cl)cc1C(F)(F)F)=N\NC(=O)c1ccccn1	43*	-4	x	1	-6	1
CO[C@H]1CN(C)C(=O)c2ccc(NC(=O)C3CCOCC3)cc2OC[C@H](C)N(Cc2nccs2)C[C@H]1C	1	1	x	2	3	x
CCOc1ccc2ccccc2c1C(=O)N1CCN(c2ccccc2)CC1	0	19*	-7	-5	1	6
CCOc1ccccc1C(=O)N1CCN(c2cccc(Cl)c2)CC1	x	x	15	x	x	-2
COc1ccc(CN(C)C[C@@H]2Oc3c(NC(=O)c4cnccn4)cccc3C(=O)N([C@H](C)CO)C[C@H]2C)cc1	0	-2	-9	6	2	x
Cc1cc(OCC(=O)NCCc2ccc(Cl)cc2)c2c(C)cc(=O)oc2c1	43*	-8	-6	-2	-7	-10
C[C@@H]1CN([C@H](C)CO)C(=O)c2cc(NC(=O)Cc3ccccc3)ccc2O[C@@H](C)CCCCO[C@H]1CN(C)C(=O)Nc1cccc2ccccc12	-1	5	8	-3	2	x
